Organism: Homo sapiens
Assay: Plasma protein binding in human

fraction unbound: 0.02
Compound: CCc1nn(C2CCCC2)c2c1CCn1c(-c3cccs3)nnc1-2 [TOFIMILAST]
